Apparent affinities of Ab-14 variants for a coronavirus HR2 peptide

The target is the same throughout: PDVDLGDISGINAS, from the HR2 region of SARS-CoV-2 spike.

Ab-14 is the parent antibody, in scFv form: VH, then the linker GGGGSGGGGSGGGGS, then VL. The light chain is unchanged in all variants.
VH: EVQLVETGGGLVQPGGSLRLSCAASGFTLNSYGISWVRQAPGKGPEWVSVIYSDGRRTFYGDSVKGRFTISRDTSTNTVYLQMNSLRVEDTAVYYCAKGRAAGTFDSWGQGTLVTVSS
VL: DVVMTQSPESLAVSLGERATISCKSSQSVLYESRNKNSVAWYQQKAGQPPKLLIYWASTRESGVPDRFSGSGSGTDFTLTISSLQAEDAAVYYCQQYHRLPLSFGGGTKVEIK

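The parent was found by panning a naive human phage display library on the peptide. Variants in AAYL49 differ from the parent at up to three CDR positions; double and triple changes were sampled at random. In AlphaSeq, yeast of one mating type display the scFv and yeast of the other type display the target. Pairs that bind mate more often; barcode pairs of the diploids are counted by sequencing. A regression on co-assayed BCL2-family reference pairs converts the normalised counts of each replicate to an apparent Kd. Each pool was mated in three replicate cultures.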

Substitutions are numbered in sequence along the VH above, starting at 1 (not Kabat).
The read-out is the apparent dissociation constant on a log10 scale (nM): the lower, the stronger.
A pair that was not seen in that replicate is written "nd"; this usually means weak binding, but a binder can also be missed.
In this assay the parent's reference entry averaged 0.65; its copy inside this library read 4.11 (one replicate of three).

| # | changes | log10 Kd, replicates | empty controls |
|---|---|---|---|
| 1 | Y32D/S53A/G99Y | 4.27 nd 5.26 | 7/9 (4.29) |
| 2 | V50D/Y52M | 3.43 3.26 4.20 | 1/9 (2.88) |
| 3 | Y32T/V64S/F105R | nd nd nd | 0/9 |
| 4 | R57M/F59S/A101N | 2.49 2.21 2.39 | 1/9 (3.89) |
| 5 | N30Y/R57P/Y60H | nd nd nd | 0/9 |
| 6 | G26E/N30L/V50H | 4.26 nd nd | 0/9 |
| 7 | G33N/T58R/A102Q | nd nd nd | 4/9 (4.33) |
| 8 | T28F/G33V/K65D | nd nd 4.96 | 6/9 (4.10) |
| 9 | T28D/G33R/G99R | 4.52 nd nd | 2/9 (4.21) |
| 10 | L29P/A101C/G103R | nd nd nd | 1/9 (4.95) |
| 11 | G26Q/T28F/I51G | nd 3.83 6.00 | 4/9 (3.87) |
| 12 | F27E/N30Y/S35R | 5.08 3.16 5.66 | 1/9 (4.87) |
| 13 | F27N/N30Y/F59I | nd 4.62 nd | 2/9 (3.25) |
| 14 | G33V/T58W/G99V | 6.50 4.03 3.96 | 3/9 (4.52) |
| 15 | Y32R/K65R/G103Y | nd nd nd | 0/9 |
| 16 | F27M/L29S/G33I | nd nd nd | 1/9 (2.88) |
| 17 | L29Q/S31L/D54G | 5.14 4.27 4.88 | 7/9 (4.07) |
| 18 | G26N/S31C/F105T | nd 3.38 nd | 2/9 (3.84) |
| 19 | Y52C/R100I | nd nd 3.30 | 1/9 (3.22) |
| 20 | G61T/G103M/T104I | 1.75 1.54 1.82 | 0/9 |
| 21 | S31W/V50S/K65V | nd nd nd | 1/9 (4.16) |
| 22 | I34G/G61L | nd 3.26 5.06 | 6/9 (4.29) |
| 23 | F27N/N30K/S35K | nd nd nd | 2/9 (3.19) |
| 24 | T28G/Y52E/T104I | nd 3.81 nd | 2/9 (3.98) |
| 25 | L29R/I51D/G61H | nd nd nd | 2/9 (3.57) |
| 26 | L29Y/A101V | nd nd nd | 0/9 |
| 27 | I51F/T58M/T104C | nd nd nd | 0/9 |
| 28 | V50S/V64P/K65H | 4.32 3.90 nd | 3/9 (4.30) |
| 29 | V50Y/G61N/F105A | 4.32 nd 3.79 | 1/9 (4.55) |
| 30 | V50P/R57L | nd nd 4.61 | 2/9 (3.98) |
| 31 | Y32Q/V50D/T58N | 4.26 nd 5.59 | 4/9 (4.49) |
| 32 | F27T/Y52F/K65L | nd nd nd | 1/9 (1.60) |
| 33 | G61I/A101Q/F105L | 0.76 0.92 0.95 | 2/9 (3.50) |
| 34 | I51L/R57W/R100Q | nd nd nd | 1/9 (4.35) |
| 35 | S63I/G99D | nd nd nd | 0/9 |
| 36 | G33D/D62F | nd nd nd | 1/9 (2.19) |
| 37 | L29Q/Y52Q | nd nd nd | 0/9 |
| 38 | G33C/R100M/F105G | nd nd nd | 0/9 |
| 39 | L29F/I34Y/R100L | nd nd nd | 0/9 |
| 40 | D54N/R56I/K65T | 4.41 nd nd | 0/9 |

Three control strains display no target. For library AAYL49, 15% of the pairings with them gave a signal, with a median of 4.06 and one signal in twenty below 2.83, so weak values seen in few replicates may be background. The control count says in how many pairings with the empty strains this scFv gave a signal, with their mean in brackets.

Values reported by Engelhart et al. 2022, doi:10.1038/s41597-022-01779-4 (FLAb copy).